Experimental findings from ChEMBL document CHEMBL1629528, “Discovery of 1-(3-{2-[4-(2-methyl-5-quinolinyl)-1-piperazinyl]ethyl}phenyl)-2-imidazolidinone (GSK163090), a Potent, selective, and orally active 5-HT1A/B/D receptor antagonist” (J Med Chem, 2010) are described below.

By UniProt entry, the sequences of proteins in these tests, tags left out. Where a name states a change or a piece, a line headed by the entry shows the natural chain unless it says otherwise.
UniProt P31652, whole entry: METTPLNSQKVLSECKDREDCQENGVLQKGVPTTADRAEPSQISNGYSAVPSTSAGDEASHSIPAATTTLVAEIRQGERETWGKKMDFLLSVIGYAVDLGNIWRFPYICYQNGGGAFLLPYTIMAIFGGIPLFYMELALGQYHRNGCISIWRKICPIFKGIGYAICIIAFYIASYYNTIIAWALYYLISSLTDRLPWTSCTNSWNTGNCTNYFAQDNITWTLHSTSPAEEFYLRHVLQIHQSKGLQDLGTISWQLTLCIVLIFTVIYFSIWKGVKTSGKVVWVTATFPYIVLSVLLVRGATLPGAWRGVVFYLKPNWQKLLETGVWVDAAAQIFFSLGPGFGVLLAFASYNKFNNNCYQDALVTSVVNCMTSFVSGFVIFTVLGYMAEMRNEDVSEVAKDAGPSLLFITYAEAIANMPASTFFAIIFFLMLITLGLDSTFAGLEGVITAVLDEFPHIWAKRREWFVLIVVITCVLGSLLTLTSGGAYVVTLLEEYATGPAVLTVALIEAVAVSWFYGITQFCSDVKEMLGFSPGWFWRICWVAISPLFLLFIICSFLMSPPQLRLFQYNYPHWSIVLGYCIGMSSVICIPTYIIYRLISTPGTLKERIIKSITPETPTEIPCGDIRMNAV
UniProt P28223, whole entry: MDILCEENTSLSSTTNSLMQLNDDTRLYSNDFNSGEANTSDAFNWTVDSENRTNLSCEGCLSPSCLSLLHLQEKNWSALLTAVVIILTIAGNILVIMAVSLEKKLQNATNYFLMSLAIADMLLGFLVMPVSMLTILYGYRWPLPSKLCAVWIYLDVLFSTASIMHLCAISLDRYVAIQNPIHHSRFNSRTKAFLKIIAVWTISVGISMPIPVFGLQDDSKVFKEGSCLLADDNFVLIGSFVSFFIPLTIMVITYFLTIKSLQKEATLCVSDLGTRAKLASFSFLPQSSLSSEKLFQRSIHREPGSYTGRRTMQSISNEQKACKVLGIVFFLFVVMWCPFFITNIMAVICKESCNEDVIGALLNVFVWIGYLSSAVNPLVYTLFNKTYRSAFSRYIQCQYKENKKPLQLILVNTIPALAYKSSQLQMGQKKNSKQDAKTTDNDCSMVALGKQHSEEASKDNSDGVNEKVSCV
UniProt P35462, whole entry: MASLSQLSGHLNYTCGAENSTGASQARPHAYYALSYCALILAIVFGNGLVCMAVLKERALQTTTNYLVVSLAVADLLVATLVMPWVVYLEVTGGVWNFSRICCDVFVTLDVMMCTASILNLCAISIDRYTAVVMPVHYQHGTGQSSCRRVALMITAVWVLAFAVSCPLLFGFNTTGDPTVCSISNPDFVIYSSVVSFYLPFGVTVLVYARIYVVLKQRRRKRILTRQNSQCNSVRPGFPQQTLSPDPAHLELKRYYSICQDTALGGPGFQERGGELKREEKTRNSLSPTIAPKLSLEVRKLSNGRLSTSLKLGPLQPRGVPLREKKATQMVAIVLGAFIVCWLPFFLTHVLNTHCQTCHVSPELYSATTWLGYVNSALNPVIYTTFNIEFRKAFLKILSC
UniProt P14416, whole entry: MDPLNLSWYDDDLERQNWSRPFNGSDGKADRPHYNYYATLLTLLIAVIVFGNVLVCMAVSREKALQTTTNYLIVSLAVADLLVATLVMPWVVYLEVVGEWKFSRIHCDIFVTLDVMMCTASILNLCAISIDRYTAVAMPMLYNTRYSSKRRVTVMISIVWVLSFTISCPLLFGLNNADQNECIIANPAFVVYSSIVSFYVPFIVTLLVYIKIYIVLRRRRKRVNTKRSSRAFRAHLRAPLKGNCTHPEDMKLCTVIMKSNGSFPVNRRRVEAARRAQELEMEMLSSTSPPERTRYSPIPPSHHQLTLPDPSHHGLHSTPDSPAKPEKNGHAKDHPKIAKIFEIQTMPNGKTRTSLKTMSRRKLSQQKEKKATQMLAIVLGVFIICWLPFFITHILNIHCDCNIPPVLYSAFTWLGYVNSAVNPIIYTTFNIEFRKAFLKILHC
UniProt P34969, whole entry: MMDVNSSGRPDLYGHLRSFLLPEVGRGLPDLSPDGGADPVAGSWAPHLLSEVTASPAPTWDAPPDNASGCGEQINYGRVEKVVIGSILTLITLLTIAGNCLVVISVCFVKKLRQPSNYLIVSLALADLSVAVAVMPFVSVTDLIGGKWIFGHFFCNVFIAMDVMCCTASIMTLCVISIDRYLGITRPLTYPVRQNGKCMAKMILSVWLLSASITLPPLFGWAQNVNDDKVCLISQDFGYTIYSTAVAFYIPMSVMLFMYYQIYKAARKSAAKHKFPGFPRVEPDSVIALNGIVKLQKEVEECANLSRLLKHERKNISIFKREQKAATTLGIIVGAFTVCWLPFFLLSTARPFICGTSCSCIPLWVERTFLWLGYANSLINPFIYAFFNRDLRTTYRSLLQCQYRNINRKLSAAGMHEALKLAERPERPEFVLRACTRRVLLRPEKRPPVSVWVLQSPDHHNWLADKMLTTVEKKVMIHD
UniProt P41595, whole entry: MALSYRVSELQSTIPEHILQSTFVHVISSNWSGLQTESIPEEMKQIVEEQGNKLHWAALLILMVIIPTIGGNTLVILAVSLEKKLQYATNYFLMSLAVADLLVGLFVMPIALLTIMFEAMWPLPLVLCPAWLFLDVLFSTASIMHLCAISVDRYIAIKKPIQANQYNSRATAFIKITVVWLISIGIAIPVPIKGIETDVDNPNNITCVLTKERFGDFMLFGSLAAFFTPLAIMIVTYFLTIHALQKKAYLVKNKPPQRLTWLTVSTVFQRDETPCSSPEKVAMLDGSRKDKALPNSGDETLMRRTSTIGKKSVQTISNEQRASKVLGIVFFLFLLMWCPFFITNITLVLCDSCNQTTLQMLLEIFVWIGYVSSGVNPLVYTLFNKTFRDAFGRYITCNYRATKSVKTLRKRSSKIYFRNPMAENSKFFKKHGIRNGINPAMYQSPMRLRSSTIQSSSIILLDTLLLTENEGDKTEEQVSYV
UniProt P08908, whole entry: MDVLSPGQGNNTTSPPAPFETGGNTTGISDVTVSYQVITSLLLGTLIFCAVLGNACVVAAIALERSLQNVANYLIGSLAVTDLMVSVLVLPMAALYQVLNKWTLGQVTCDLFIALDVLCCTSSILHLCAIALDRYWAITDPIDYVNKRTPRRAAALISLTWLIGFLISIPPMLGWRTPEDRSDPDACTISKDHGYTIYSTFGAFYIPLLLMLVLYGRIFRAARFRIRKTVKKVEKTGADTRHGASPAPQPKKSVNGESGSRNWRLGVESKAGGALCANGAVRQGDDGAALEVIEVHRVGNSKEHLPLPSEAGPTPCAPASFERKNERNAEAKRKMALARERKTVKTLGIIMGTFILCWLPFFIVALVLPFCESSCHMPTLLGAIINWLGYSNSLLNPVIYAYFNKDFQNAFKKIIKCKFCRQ
UniProt P28222, whole entry: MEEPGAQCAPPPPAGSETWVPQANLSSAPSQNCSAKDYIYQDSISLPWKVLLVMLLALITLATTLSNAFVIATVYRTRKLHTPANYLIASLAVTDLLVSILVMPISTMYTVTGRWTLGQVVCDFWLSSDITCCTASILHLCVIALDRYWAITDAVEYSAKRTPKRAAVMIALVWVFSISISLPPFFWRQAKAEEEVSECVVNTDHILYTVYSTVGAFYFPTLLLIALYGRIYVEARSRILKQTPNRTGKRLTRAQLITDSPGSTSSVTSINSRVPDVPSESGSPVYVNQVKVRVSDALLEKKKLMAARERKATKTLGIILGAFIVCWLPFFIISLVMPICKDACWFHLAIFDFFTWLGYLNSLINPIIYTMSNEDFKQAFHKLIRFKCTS
UniProt P28221: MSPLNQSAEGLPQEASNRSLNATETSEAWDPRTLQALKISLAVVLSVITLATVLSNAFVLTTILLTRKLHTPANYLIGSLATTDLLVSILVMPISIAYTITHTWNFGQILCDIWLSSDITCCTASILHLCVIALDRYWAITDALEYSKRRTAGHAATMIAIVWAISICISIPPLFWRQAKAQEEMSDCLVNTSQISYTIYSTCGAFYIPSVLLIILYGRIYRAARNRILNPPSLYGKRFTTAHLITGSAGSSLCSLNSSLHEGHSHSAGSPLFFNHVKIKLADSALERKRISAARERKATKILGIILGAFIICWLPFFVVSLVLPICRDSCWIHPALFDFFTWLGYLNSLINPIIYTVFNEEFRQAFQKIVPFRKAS

One series concerns MDR1 (P-gp). Description: in vitro. The note with it: dog, MDCK-MDR1.
Series [1] deals with Sodium-dependent serotonin transporter (Rattus norvegicus, UniProt P31652). The experiment in a line: Inhibition of [3H]5-HT uptake at SERT in rat cortical synaptosomes. The class given is subcellular, Brain.
Series [2] addresses 5-hydroxytryptamine receptor 2A (Homo sapiens, UniProt P28223). Description: Binding affinity to human recombinant 5-HT2A receptor by radioligand displacement assay.
Another series deals with D(3) dopamine receptor (Homo sapiens, UniProt P35462). Description: Binding affinity to human recombinant dopamine D3 receptor by radioligand displacement assay.
The next series addresses D(2) dopamine receptor (Homo sapiens, UniProt P14416). Description: Binding affinity to human recombinant dopamine D2 receptor by radioligand displacement assay.
The target of series [3] is 5-hydroxytryptamine receptor 7 (Homo sapiens, UniProt P34969). The experiment in a line: Binding affinity to human recombinant 5-HT7 receptor by radioligand displacement assay.
Series [4] deals with 5-hydroxytryptamine receptor 2B (Homo sapiens, UniProt P41595). The experiment in a line: Binding affinity to human recombinant 5-HT2B receptor by radioligand displacement assay.
For series [5], the target named is 5-hydroxytryptamine receptor 1A (Homo sapiens, UniProt P08908). Description: Displacement of [3H]WAY100635 from human recombinant 5-HT1A receptor expressed in CHO cells. The format is cell-based.
Series [6] deals with 5-hydroxytryptamine receptor 1B (Homo sapiens, UniProt P28222). The experiment in a line: Displacement of [3H]5-HT from human recombinant 5-HT1B receptor expressed in CHO cells. The format is cell-based.
For series [7], the target named is 5-hydroxytryptamine receptor 1D (Homo sapiens, UniProt P28221). The experiment in a line: Displacement of [3H]5-HT from human recombinant 5-HT1D receptor expressed in CHO cells. The class given is cell-based.

`Cc1ccc2c(N3CCN(CCc4cccc(N5CCNC5=O)c4)CC3)cccc2n1` [GSK163090]: the efflux ratio at 1 µM with MDR1 (P-gp) stood at 2.8. Besides, the Ki in [1] was 794 nM; in series [2], 1000 nM; on D(3) dopamine receptor, 200 nM; at D(2) dopamine receptor, 501 nM; in series [3], 158 nM; in series [4] it was 501 nM. In addition, the figures for the Ki in [5], in [6] and in [7] were 0.398 nM, 3.16 nM and 0.2 nM, respectively.
